Measurements from US20230089582A1, “1,2,4-TRIAZINE-3,5-DIONE COMPOUND, PREPARATION METHOD THEREFOR, AND APPLICATION THEREOF” (KPC PHARMACEUTICALS, INC, priority 2019, published 2023).

The chains behind the UniProt entries cited, without tags or fusion partners. Residues count along the entry.
UniProt P10827, 163-410 isoform P10827-2 limits assumed: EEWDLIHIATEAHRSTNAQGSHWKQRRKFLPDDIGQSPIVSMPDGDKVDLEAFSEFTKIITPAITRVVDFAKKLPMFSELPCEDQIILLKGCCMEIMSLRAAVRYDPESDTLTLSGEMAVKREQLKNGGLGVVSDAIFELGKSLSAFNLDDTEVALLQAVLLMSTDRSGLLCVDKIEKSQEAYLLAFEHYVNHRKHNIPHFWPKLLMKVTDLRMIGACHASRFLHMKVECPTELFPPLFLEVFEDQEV

Target: THRα (Homo sapiens, UniProt P10827)
Assay: THRα binding assay (TR-FRET co-activating peptide recruitment)
Format: biochemical
Conditions: THRα instead of THRβ, agonistic effect

For `CC(C)c1cc(Oc2c(Cl)cc(-n3nc(C#N)c(=O)[nH]c3=O)cc2Cl)n[nH]c1=O` [Control compound 2, MGL-3196, reference compound], the Emax was 111%.
